# Nrf2 ARE act – activators of Nrf2 (ARE) signaling. AREc32 ARE-luciferase reporter (MCF7-derived line), luminescence, 24 h. Potency, µM (doses to about 46.1 µM), for the others: at the top dose activation, hits mostly activators. 410,000 tested, 0.31% active. AID 624171; also: potency is read from the fitted curve at half-maximal effect; % of control where 0% means no effect; nearly all actives have a fitted effect of over 65% in size
#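 Nrf2 activation is followed as ARE-luciferase induction in the AREc32 line after one day of compound treatment; luminescence is read with Steady-Glo.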
# TSG101-PTAP inh – blocks PTAP/TSG101 interaction to inhibit HIV-1 budding; Q99816; Fluorescence polarization, FITC-PTAP peptide / Tsg101 binding; Potency, µM (top dose mostly 115 µM), without a hit: at the top dose activity change, negative = inhibition, hits mostly inhibitors; 340,000 tested, under 10 active; AID 493005; active = well fitted inhibition curve with a large enough effect in the main read-out, with a control signal flat, not every such curve was filed as active; inconclusive = small, poorly fitted or top-dose-only effect, or effect the other way, or a change in a side signal; inactive = no such curve, though single readings can be large or run the other way; also: potency is read from the fitted curve at half-maximal effect; % of control where 0% means no effect
#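 Tsg101 binding domain (10 uM final) was mixed with compound and a FITC-labeled PTAP peptide (50 nM final) in HEPES pH 7.5 buffer with NaCl, Tween 20, EDTA and TCEP; fluorescence polarization was read after 20 min at r.t.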
# miR-21 reporter – raises the signal of a miR-21 reporter | HeLa miR-21 FLuc reporter, luciferase, 48 h | Potency, µM (doses to about 38.3 µM), for the others: at the highest dose reporter change, positive = more light | 340,000 tested, under 10 active | AID 2288; active = well fitted rising curve with a large enough effect; inconclusive = small, poorly fitted or top-dose-only effect; inactive = no such curve, though single readings can be large or run the other way;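 also: % of control where 0% means no effect; miR-21 action dims this reporter so a rising signal means less miR-21 action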
#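 HeLa cells stably expressing CMV-driven firefly luciferase with a downstream miR-21 binding sequence, endogenously expressing miR-21, were treated with titrations (up to about 40uM final) for 48 hours at 37 degree Celsius. Luciferase luminescence was read after lysis.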
# GRP78 ERSR act – induces the endoplasmic reticulum stress response in human glioma cells. Potency, µM, inactives show at the highest dose activation, actives largely listed as activators. U87-MG GRP78 promoter luciferase reporter, 16 h. 420,000 tested, 0.02% active; also: potency is read from the fitted curve at half-maximal effect; series mostly up to about 76 µM; % of control where 0% means no effect; nearly all actives have a fitted effect of over 35% in size
#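 Stably transfected U87-MG glioma cells carrying a GRP78-based luciferase sensor; 16 h compound incubation. Luminescence end-point read 10 min after Bright-Glo addition at room temperature.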
# A549 tox-1 – counter-screen for Nrf2 inhibitors: cytotoxicity in A549 cells; A549 ARE-Fluc cells, CellTiter-Fluor viability, 18-24 h; Potency, µM (highest dose often 46 µM), for the others: top-dose activity change, negative = cytotoxicity, usual class: inhibitors; 390,000 tested, 0.16% active; AID 504648; also: potency is read from the fitted curve at half-maximal effect; % is scaled to controls: 0 for no effect and ±100 for the full control effect
#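 A549 ARE-Fluc cells in 5% FBS OPTI-MEM, 5000 cells/well, rested 2 h then exposed to compounds in concentration-response for 18-24 h at 37 °C. Viability by CellTiter-Fluor fluorescence (Ex 405/Em 525) after 30 min; luciferase luminescence (BugLite, 15 min, RT) read afterwards.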
# Nrf2 inh – Nrf2 pathway inhibition | A549 ARE-Fluc reporter, luciferase luminescence, 18-24 h | Potency, µM (top dose mostly 46 µM), without a hit: top-dose activity change, negative = inhibition, usual class: inhibitors | 360,000 tested, 2.1% active; also: potency is read from the fitted curve at half-maximal effect; % is scaled to controls: 0 for no effect and ±100 for the full control effect; nearly all actives have a fitted effect of over 60% in size
#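 Two sequential reads on A549 ARE_Fluc cells exposed to compound for 18-24 h: a CellTiter-Fluor fluorescence read for viability, then a luciferase luminescence read for Nrf2/ARE activity.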
# FLuc enzyme inh – blocks purified firefly luciferase in Nrf2 counterscreen; shares compounds with Nrf2 inh; purified firefly luciferase, luminescence inhibition; Potency, µM (titrated, usually from 57.5 µM), for inactives: at the highest dose activity change, negative = inhibition, actives largely listed as inhibitors; 1,400 tested, 4% active; AID 720522; also: potency is read from the fitted curve at half-maximal effect; % is scaled to controls: 0 for no effect and ±100 for the full control effect; nearly all actives have a fitted effect of over 65% in size
# A549 tox-2 – counter-screen for Nrf2 inhibitors: cytotoxicity in A549 ARE cells | shares compounds with Nrf2 inh | A549 ARE-Fluc cells, cytotoxicity counterscreen | Potency, µM (highest dose often 46.1 µM), for the others: top-dose activity change, negative = cytotoxicity, actives largely listed as inhibitors | 1,400 tested, 2% active;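 also: potency is read from the fitted curve at half-maximal effect; cells exposed to compounds for 18 to 24 hours; % is scaled to controls: 0 for no effect and ±100 for the full control effect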
# ARE-Fluc inh – reduces Nrf2 ARE reporter signal in A549 cells. 1,400 tested, 74% active. shares compounds with Nrf2 inh. A549 ARE-firefly luciferase reporter, luminescence. AID 720524. Potency, µM (titrated, usually from 46.1 µM), for inactives: top-dose activity change, negative = inhibition, actives largely listed as inhibitors; also: potency is read from the fitted curve at half-maximal effect; % is scaled to controls: 0 for no effect and ±100 for the full control effect; nearly all actives have a fitted effect of over 65% in size
# * = called active by the depositor; ? = inconclusive; · = no result given. Rows were chosen to be rich in hits. Some 2.1% of all compounds tested hit in one or more screens of this group. Unless noted, calls follow the shape of the dose curve; as a rule, active = well fitted curve in the direction sought with a large enough effect; inconclusive = small, poorly fitted or top-dose-only effect, or another doubt; inactive = no such curve, though single readings can be large; an effect the other way counts as inactive or inconclusive.
item | canonical_smiles | Nrf2 ARE act | TSG101-PTAP inh | miR-21 reporter | GRP78 ERSR act | A549 tox-1
1 | COc1cc(OC)c(/C=C/c2nccc3ccccc23)c(OC)c1 | · | · | · | -4.3% | ·
2 | COc1cc(OC)c(/C=C/c2ccc3ccccc3n2)c(OC)c1 | · | · | · | -5.6% | ·
3 | C=C(/C=C/c1ccc(N(C)C)cc1)c1nc2ccccc2s1 | · | · | · | -9.1% | ·
4 | Cc1cccc2cc(CN(C(=O)c3ccc(C(F)(F)F)cc3)C3CC3)c(N3CCC(O)CC3)nc12 | · | · | · | 0.8% | ·
5 | CC1CCCN(S(=O)(=O)c2ccc(C(=O)Nc3nnc(-c4ccccc4Cl)o3)cc2)C1 (stereo not given) | 0.5% | 0.8% | -0.9% | -7.7% | -3.9%
6 | Cc1cc(C)c2nc(NNC(=O)c3ccc(S(=O)(=O)N4CCCC(C)C4)cc3)sc2c1 (stereo not given) | -1.2% | -1.2% | 12.7% | -7.3% | ?
7 | CC1CCCN(S(=O)(=O)c2ccc(C(=O)Nc3nnc(C4CC4)o3)cc2)C1 (stereo not given) | -0.5% | -8.7% | 28.0% | 5.0% | ?
8 | CCN1C(=NCc2cccc(Cl)c2)N[C@@H](c2cccc(C(F)(F)F)c2)C(C(=O)OC)=C1C | · | · | · | -11.6% | ·
9 | O=C(NCCCn1ccnc1)c1ccc(N2CCCCCC2)c([N+](=O)[O-])c1 | 2.5% | 1.0% | ? | 1.2% | -18.3%
10 | COC(=O)c1ccccc1NC(=O)Cn1c(=O)cc(C)c2c(C)nn(C)c21 | 0.1% | · | 0.0% | -2.6% | -1.2%
11 | COc1ccc(C)cc1NC(=O)Cn1c(=O)cc(C)c2c(C)nn(C)c21 | -0.9% | · | 8.8% | · | -3.3%
12 | Cc1ccc(C)c(NC(=S)NC(NC(=O)/C=C/c2ccccc2)C(Cl)(Cl)Cl)c1 (stereo not given) | -0.3% | -5.7% | 2.6% | -5.2% | -27.4%
13 | CSCC[C@H](NC(=O)[C@H](CC(C)C)NC(=O)CNC(=O)[C@H](Cc1ccccc1)NC(=O)[C@H](Cc1ccccc1)NC(=O)[C@H](CCC(N)=O)NC(=O)[C@H](CCC(N)=O)NC(=O)[C@@H]1CCCN1C(=O)[C@H](CCCCN)NC(=O)[C@@H]1CCCN1C(=O)[C@@H](N)CCCN=C(N)N)C(N)=O | · | · | · | -0.4% | ·
14 | Cc1ccc(Cl)cc1N1CCN(C(=O)c2cc3c(=O)[nH]c4ccccc4c3n2C)CC1 | -0.3% | -5.0% | -5.6% | -4.6% | -19.8%
15 | Cn1c(C(=O)N2CCN(c3ccc(Cl)cc3)CC2)cc2c(=O)[nH]c3ccccc3c21 | 0.2% | -1.4% | -4.3% | -6.5% | -26.8%

item | Nrf2 inh | FLuc enzyme inh | A549 tox-2 | ARE-Fluc inh
1 | · | 7.57µM* | 23.3% | ·
2 | · | -23.7% | ? | 6.51µM*
3 | · | · | · | ·
4 | · | · | · | ·
5 | ? | · | · | ·
6 | 4.11µM* | -0.7% | -19.1% | 6.51µM*
7 | 5.8µM* | -1.2% | ? | 9.2µM*
8 | · | · | · | ·
9 | 2.91µM* | -16.0% | -12.0% | 4.1%
10 | 8.5% | · | · | ·
11 | 5.8µM* | 3.6% | -4.4% | 2.31µM*
12 | 8.2µM* | -20.8% | ? | 0.366µM*
13 | · | · | · | ·
14 | 4.11µM* | 2.2% | -25.4% | ?
15 | ? | · | · | ·

# Entries 1 to 2, reprinted for reference:
item | canonical_smiles | Nrf2 ARE act | TSG101-PTAP inh | miR-21 reporter | GRP78 ERSR act | A549 tox-1
1 | COc1cc(OC)c(/C=C/c2nccc3ccccc23)c(OC)c1 | · | · | · | -4.3% | ·
2 | COc1cc(OC)c(/C=C/c2ccc3ccccc3n2)c(OC)c1 | · | · | · | -5.6% | ·

item | Nrf2 inh | FLuc enzyme inh | A549 tox-2 | ARE-Fluc inh
1 | · | 7.57µM* | 23.3% | ·
2 | · | -23.7% | ? | 6.51µM*

# Remaining list, next part:
item | canonical_smiles | Nrf2 ARE act | TSG101-PTAP inh | miR-21 reporter | GRP78 ERSR act | A549 tox-1
16 | COc1cc(CNCc2ccc(OC)cc2OC)cc(OC)c1 | 0.2% | -0.4% | 9.5% | -3.9% | -6.7%
17 | COc1ccc(CNCc2ccc(C)cc2)c(OC)c1 | 0.2% | -3.3% | 3.5% | -4.8% | 12.0%
18 | CC(C)(C)NC(=O)CSc1nc2ccc(NC(=O)CSc3nnnn3Cc3ccccc3)cc2s1 | 1.7% | 0.8% | ? | -2.4% | -15.9%
19 | COCCNc1nc2c(c(=O)n(Cc3ccc(OC)cc3)c(=O)n2C)n1C | -0.6% | -3.1% | 2.7% | -5.0% | -0.6%
20 | COc1ccc(CNc2nc3c(c(=O)n(Cc4ccc(Cl)cc4)c(=O)n3C)n2C)cc1 | -0.4% | 5.4% | ? | 2.2% | ?
21 | NCCCNc1ccc(Br)cn1 | · | · | · | · | 8.1%
22 | COc1ccc(C2=NC(c3ccc(Cl)cc3)C(c3ccc(Cl)cc3)N2C(=O)N2CCNC(=O)C2)c(OC(C)C)c1 (stereo not given) | · | · | · | 3.0% | ·
23 | Cc1ccc(Cn2c(C)c3cnn(CC(=O)N4CCN(c5cc(C)ccc5C)CC4)c(=O)c3c2C)cc1 | -0.8% | · | ? | -3.2% | -16.9%
24 | Cc1c2cnn(CC(=O)N3CCN(c4ccc(F)cc4)CC3)c(=O)c2c(C)n1Cc1ccc(F)cc1 | 4.2% | · | -2.0% | -1.8% | -11.4%
25 | CCN1/C(=C/c2cc[n+](C)cc2)C=Cc2cc(C)ccc21 | -0.2% | 0.6% | 1.1% | -4.0% | ?
26 | CCN1C(=O)/C(=C2\C=Cc3cc(C)ccc3N2CC)OC1=S | -0.4% | -4.6% | -23.3% | 0.7% | -15.4%
27 | CN(C)c1c(Cl)cc(/C=C2\C=Cc3ccccc32)cc1Cl | · | · | · | 0.2% | ·
28 | COc1ccccc1C1CN(CCNC(=O)c2sccc2Cl)Cc2ccccc2O1 (stereo not given) | · | · | · | -4.8% | ·
29 | COc1ccc(-c2nc(CN3CCN(c4ncnc5ccccc45)CC3)c(C)o2)c(OC)c1 | 0.2% | -0.7% | ? | -4.4% | ?
30 | C[C@H](O)C(N)C(=O)O (stereo not given in full) | · | · | · | 4.7% | ·

item | Nrf2 inh | FLuc enzyme inh | A549 tox-2 | ARE-Fluc inh
16 | 7.31µM* | 2.9% | -3.2% | ?
17 | 0.6% | · | · | ·
18 | 8.2µM* | -28.6% | -16.9% | 7.31µM*
19 | 3.2% | · | · | ·
20 | 9.2µM* | -0.2% | -19.1% | 13µM*
21 | 6.6% | · | · | ·
22 | · | · | · | ·
23 | 8.2µM* | 4.4% | -23.5% | 6.51µM*
24 | ? | · | · | ·
25 | 3.66µM* | -18.4% | 10.3µM* | 1.3µM*
26 | -2.4% | · | · | ·
27 | · | · | · | ·
28 | · | · | · | ·
29 | 8.2µM* | 2.4% | -12.7% | 8.2µM*
30 | · | · | · | ·

# Next records follow:
item | canonical_smiles | Nrf2 ARE act | TSG101-PTAP inh | miR-21 reporter | GRP78 ERSR act | A549 tox-1
31 | O=S(=O)(NC1CCc2ccccc21)c1ccc(S(=O)(=O)N2CCCC2)cc1 (stereo not given) | 1.8% | 0.3% | 9.5% | -5.0% | -2.6%
32 | Cc1noc(C)c1CSCC(=O)Nc1nc(-c2ccc(F)c(F)c2)cs1 | -1.9% | -4.9% | · | -9.4% | ?
33 | Cc1csc(NC(=O)CSCc2c(C)noc2C)n1 | -0.4% | -10.5% | · | -0.5% | 1.5%
34 | Cc1cc2c(cc1C)C(=O)NC(C)(C)C2 | 0.0% | -6.0% | 7.7% | -2.0% | -0.3%

item | Nrf2 inh | FLuc enzyme inh | A549 tox-2 | ARE-Fluc inh
31 | 4.11µM* | 0.7% | 1.3% | ?
32 | 9.2µM* | -12.5% | -18.2% | 13µM*
33 | 1.1% | · | · | ·
34 | 7.31µM* | -1.5% | -0.2% | 17.6%

# Assay outcomes deposited in PubChem BioAssay by National Center for Advancing Translational Sciences (NCATS).
